# AlphaSeq binding of Ab-14 light chain variants to a spike HR2 peptide

Data: MIT Lincoln Laboratory AlphaSeq set, Engelhart et al. 2022, doi:10.1038/s41597-022-01779-4, as distributed in FLAb.

The target is the same throughout: PDVDLGDISGINAS, from the HR2 region of SARS-CoV-2 spike.

Ab-14 is the parent antibody, in scFv form: VH, then a 15-residue (Gly4Ser)3 linker, then VL. The heavy chain is unchanged in all variants.
VH: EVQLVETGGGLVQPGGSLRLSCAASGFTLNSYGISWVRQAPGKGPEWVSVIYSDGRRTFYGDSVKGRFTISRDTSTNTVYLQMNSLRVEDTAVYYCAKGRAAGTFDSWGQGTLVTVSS
VL: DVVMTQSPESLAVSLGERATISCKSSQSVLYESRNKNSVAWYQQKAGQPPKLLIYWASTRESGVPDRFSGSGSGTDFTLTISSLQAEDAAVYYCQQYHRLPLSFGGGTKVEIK

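The starting antibody came from a phage panning campaign against this peptide. Library AAYL50 holds single substitutions and randomly drawn double and triple substitutions in the CDRs. Affinity was read by AlphaSeq, a pooled yeast mating assay with surface-displayed partners. The frequency of each diploid, read from paired DNA barcodes, reflects how well the two displayed proteins bind. A regression on co-assayed BCL2-family reference pairs converts the normalised counts of each replicate to an apparent Kd. Each pool was mated in three replicate cultures.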

Changes read parent residue, position, new residue, counted from the first residue of the VL shown.
Affinities are written as log10 Kd with Kd in nM; a lower number is a better binder.
Where no diploid with the target was found in that replicate, the entry reads "n.d.": below detection, most likely a poor binder, though not proof of it.
Parent in this assay: reference entry 0.65, copy in this library 1.68.
Nonspecific signal, from three strains lacking the peptide, appeared in 18% of pairings of library AAYL50, centred on 4.19 (5% of these signals below 2.99); values are not corrected for it. The control count says in how many pairings with the empty strains this scFv gave a signal, with their mean in brackets.

changes,"replicates, log10 nM",signal with controls
V39L/W56N/T59E,1.00 / 1.42 / 1.18,0/9
S58L/Y97H/H98P,2.91 / 4.35 / 3.15,4/9 (3.91)
S26A/Q96W/Y97V,n.d. / n.d. / n.d.,0/9
S26D/W56V/S62F,n.d. / n.d. / 3.15,0/9
N35K/L100N/P101S,n.d. / n.d. / n.d.,0/9
S33H/R60Y/R99N,n.d. / n.d. / n.d.,0/9
K36E/S62Q/P101C,2.70 / 2.33 / 3.25,1/9 (4.60)
R34Y/A57N/Y97P,4.09 / n.d. / n.d.,3/9 (4.05)
S33F/K36S,1.37 / 1.28 / 1.72,2/9 (3.97)
Q27P/S28E/L102H,0.68 / 1.04 / 0.98,0/9
S28A/V29A/E61I,0.61 / 0.88 / 0.78,4/9 (4.98)
E32Q/R34C/Q96A,n.d. / 4.19 / 4.98,5/9 (4.60)
S28Q/L30Y/R60S,n.d. / n.d. / 3.39,1/9 (4.15)
K24D/S26N/S28V,4.65 / 3.37 / 3.71,2/9 (4.56)
S38E/Q96E/R99E,4.71 / n.d. / n.d.,1/9 (5.08)
Q95V/S103K,n.d. / n.d. / n.d.,0/9
V29Y/Y31Q/L102I,n.d. / n.d. / n.d.,0/9
S25D/S38W/H98T,3.40 / n.d. / 3.53,0/9
R60M/H98K/L100N,n.d. / n.d. / 5.74,1/9 (4.18)
S33I/N37W/R60I,n.d. / n.d. / n.d.,3/9 (4.33)
R60Y/P101S/S103E,n.d. / n.d. / n.d.,1/9 (4.21)
N35K/A57I/R60P,3.67 / n.d. / n.d.,2/9 (3.63)
R34G/N37V/A40H,n.d. / n.d. / n.d.,0/9
S26Q/E61D/Q95T,4.69 / 3.42 / 3.62,2/9 (4.48)
S33R/Y97H,4.36 / n.d. / n.d.,2/9 (4.19)
A40Y/S58P/Y97S,n.d. / 3.59 / n.d.,2/9 (3.01)
V29Y/S62N/P101W,n.d. / n.d. / n.d.,0/9
L30A/S58C/L102K,n.d. / n.d. / n.d.,0/9
S26Q/V39H/P101D,n.d. / n.d. / n.d.,1/9 (3.83)
R34E/K36S/E61D,1.27 / 1.52 / 1.26,5/9 (3.66)
N35K/N37C/L100D,n.d. / 2.84 / n.d.,1/9 (4.51)
S26R/R99I/L102N,n.d. / n.d. / n.d.,2/9 (4.56)
K24C/S28K/A57Q,n.d. / n.d. / n.d.,0/9
S25Y/S38H/W56N,-0.24 / 0.07 / -0.14,2/9 (4.16)
S26D/R60M/L100I,3.84 / 4.05 / 3.69,5/9 (4.36)
S25A/V29F/S38R,n.d. / 4.02 / n.d.,1/9 (4.01)
V29K/Y31H/L102S,n.d. / 4.29 / 4.25,3/9 (3.90)
W56C/E61H/S62H,1.81 / 2.54 / 2.27,1/9 (3.38)
S25M/S33H/S38R,4.20 / 3.67 / n.d.,2/9 (4.48)
R60D/Q96H/L102Q,5.03 / n.d. / n.d.,3/9 (3.89)
R34C/A40T/R60F,n.d. / 4.29 / n.d.,0/9
L30P/A57L/L102W,n.d. / n.d. / n.d.,0/9
E32G/L100K,0.54 / 0.79 / 0.76,0/9
Q27P/S28I/Q96P,4.02 / n.d. / n.d.,2/9 (4.41)
S26F/V39T/H98L,n.d. / n.d. / n.d.,0/9
S33H/Q96D/R99Q,0.91 / 1.06 / 1.02,2/9 (5.39)
N35W/Q96T/S103A,2.38 / 2.43 / 2.33,2/9 (4.29)
S26W/S28C/P101A,n.d. / n.d. / n.d.,0/9

The first 5 variants above that were never detected:

changes	replicates, log10 nM	signal with controls
S26A/Q96W/Y97V	n.d. / n.d. / n.d.	0/9
N35K/L100N/P101S	n.d. / n.d. / n.d.	0/9
S33H/R60Y/R99N	n.d. / n.d. / n.d.	0/9
Q95V/S103K	n.d. / n.d. / n.d.	0/9
V29Y/Y31Q/L102I	n.d. / n.d. / n.d.	0/9